The target in the assay is rat CB1 (Rattus norvegicus, UniProt P20272). Description: thallium flux, HEK/GIRK cells. Type of assay: cell-based.

Sequences of proteins named here, by UniProt entry; tags and fusion partners are left off.
UniProt P20272, whole entry: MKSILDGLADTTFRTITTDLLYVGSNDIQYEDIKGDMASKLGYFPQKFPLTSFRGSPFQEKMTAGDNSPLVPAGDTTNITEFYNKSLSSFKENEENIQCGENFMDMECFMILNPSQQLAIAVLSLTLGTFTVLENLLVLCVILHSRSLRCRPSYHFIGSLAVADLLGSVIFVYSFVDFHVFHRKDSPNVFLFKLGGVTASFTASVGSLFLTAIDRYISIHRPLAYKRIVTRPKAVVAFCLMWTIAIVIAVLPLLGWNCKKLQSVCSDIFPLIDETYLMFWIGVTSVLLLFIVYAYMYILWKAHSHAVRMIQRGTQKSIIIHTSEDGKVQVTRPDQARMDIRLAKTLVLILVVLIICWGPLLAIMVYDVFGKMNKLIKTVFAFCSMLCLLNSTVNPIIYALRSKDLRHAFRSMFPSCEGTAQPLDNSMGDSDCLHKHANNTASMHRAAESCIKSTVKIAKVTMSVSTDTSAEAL

The EC50 is the midpoint of the concentration-response curve. Molecule `CCCCC/C=C\C/C=C\C/C=C\C/C=C\CCCC(=O)OC(CO)CO` [2-AG] gave an EC50 of 17 nM. This counts as double-digit nanomolar.

(Values after article PMC11636628 (Journal of receptor and signal transduction research, 2024).)
